According to US11034726B2, “Gene expression inhibitors” (PIVARIS BIOSCIENCE GMBH, priority 2017, dated 2021):
Ends that are not written are not given here.

Columns and labels:
[1] = system: plasmid-encoded secreted alkaline phosphatase (SEAP) in HEK293 cells; assay: Transient transfection of SEAP expression vector (CMV promoter), SEAP in supernatant by colorimetric assay; type: cell-based, human; details: 24 hrs
[2] = system: plasmid-encoded truncated NF-κB p65 (p65 M2) in HEK293 cells; assay: Transfection of p65 M2 expression plasmid, Western blot; type: cell-based, human; details: 20 μM, 24 hrs
[3] = system: plasmid-encoded luciferase in HEK293 cells; assay: Transient transfection of luciferase expression plasmid (CMV promoter) with peptide, luciferase in cell lysates; details: peptide transfected with CMV-luciferase plasmid, HEK293, 24 hrs

Row | Sequence | SEAP released to the supernatant (in words) [1] | p65 M2 production by Western blot [2] | inhibition of luciferase production (in words) [3]
1 | CLAFYACFC (cysteine pairing not given here) [I24, linear or cyclized via cysteine residues] | reduced production of SEAP in a dose-dependent manner | no p65 M2 could be detected | 
2 | CLAFYACFCGGGCLAFYACFC [I24 dimer] |  |  | more potent compared to peptide I24 but less potent compared to TAT-I24
